Several values for one entry are separate records, joined by “and”; a condition that tells them apart may be missing. Equal entries are not always repeated. The list shows a part of the results, in another mix than the full data. Some of these compounds have results that are not shown, active ones among them. Records with an inconclusive call do not appear. Activity calls are given as the source filed them. Calls follow the shape of the full dose curve; tested in A549 cells.
Experiment: qHTS for Stage-Specific Inhibitors of Vaccinia Orthopoxvirus: Venus Reporter Primary qHTS; also: nearly all actives have a fitted effect of over 30% in size
Details: Vaccinia virus Venus reporter expression, fluorescence; at 36.5 µM (top of the series)
% is scaled to controls: 0 for no effect and ±100 for the full control effect.

| SMILES | activity change, negative = inhibition |
| --- | --- |
| O=C(CBr)c1ccc(Cl)cc1 | inactive: -4.5% |
| CN(C)C1(CNC(=O)c2ccc(Br)cc2)CCCCC1 | inactive: -6.21% |
| COc1cccc(C(=O)NCC2(N3CCCCC3)CCCCC2)c1 | inactive: 6.9% |
| COc1ccc(Cl)cc1C(=O)NCC1(N(C)C)CCCCC1 | inactive: 6.88% |
| COc1ccc(C(=O)NCC2(N(C)C)CCCCC2)cc1Cl | inactive: -4.67% |
| O=C(NCC1(N2CCCCC2)CCCCC1)c1cccc(Cl)c1 | inactive: 0% |
| COc1cccc(C(=O)NCC2(N3CCOCC3)CCCCC2)c1 | inactive: -1.78% |
| O=C(OC1CN2CCC1CC2)C(CO)(c1ccccc1)c1ccccc1 (configuration not stated) | inactive: -16.4% |
| CC(C)COc1ccc(C(=O)NCC2(N(C)C)CCCCC2)cc1 | inactive: -6.71% |
| C=C(C)C#CC(O)(C(=O)OC1CCN(C)CC1)c1ccccc1 (configuration not stated) | inactive: -4.63% |
| Cc1cccc(C(=O)NCC2(N(C)C)CCCCC2)c1 | inactive: -14.5% |
| COc1cc(C(=O)NCC2(N(C)C)CCCCC2)cc(OC)c1OC | inactive: -1.97% |
| CC(C)Oc1ccc(C(=O)NCC2(N(C)C)CCCCC2)cc1 | inactive: -13.3% and inactive: -12.7% |
| O=C(OCCN1CCCC1)C(O)(c1ccccc1)c1ccccc1 | inactive: -0.136% |
| CN(C)c1cccc(C(=O)NCC2(N(C)C)CCCCC2)c1 | inactive: 3.47% |
| O=C(NCC1(N2CCCCC2)CCCCC1)c1cc([N+](=O)[O-])ccc1Cl | inactive: -8.41% |

| SMILES | activity change, negative = inhibition |
| --- | --- |
| CN(C)C1(CNC(=O)c2cccc(Cl)c2)CCCCC1 | inactive: -21.2% |
| CCN(CC)CC(C)C(C)OC(=O)C(O)(c1ccccc1)c1ccccc1 (configuration not stated) | inactive: -2.01% |
| CC(C)N1C(=O)CC2(CCN(CCOC(=O)C(O)(c3ccccc3)c3ccccc3)CC2)C1=O | inactive: -22.5% |
| Cc1ccc(C(=O)NCC2(N3CCCCC3)CCCCC2)cc1 | inactive: -11.6% |
| CN(C)C1(CNC(=O)c2ccccc2F)CCCCC1 | inactive: 2.35% |
| Cc1ccccc1C(=O)NCC1(N2CCCCC2)CCCCC1 | inactive: -9.09% |
| CN(C)C1(CNC(=O)c2ccccc2[N+](=O)[O-])CCCCC1 | inactive: 0.243% |
| CN(C)c1ccc(C(=O)NCC2(N(C)C)CCCCC2)cc1 | inactive: -9.25% |
| CN(C)C1CCCC1OC(=O)C(O)(c1ccccc1)c1ccccc1 (configuration not stated) | inactive: -2.34% |
| CCCCOc1ccccc1C(=O)NCC1(N(C)C)CCCCC1 | inactive: -4.95% |
| C=CCN1CCN(CCOC(=O)C(O)(c2ccccc2)c2ccccc2)CC1 | inactive: -11.6% |
| O=C(NCC1(N2CCCCC2)CCCCC1)c1cc(F)c(F)cc1Cl | inactive: -5.45% |
| CCOc1cccc(C(=O)NCC2(N(C)C)CCCCC2)c1 | inactive: 2.97% |
| CCN1CCCC(OC(=O)C2(O)c3ccccc3C=Cc3ccccc32)C1 (configuration not stated) | inactive: -13.9% |
| Cc1cc(C(=O)NCC2(N3CCCCC3)CCCCC2)ccc1[N+](=O)[O-] | inactive: 6.8% |
| O=C(NCC1(N2CCCCC2)CCCCC1)c1cccc(Br)c1 | inactive: 6.51% |
